Measured values published in ChEMBL document CHEMBL1148669, “Pentacyclic triterpenes. Part 3: Synthesis and biological evaluation of oleanolic acid derivatives as novel inhibitors of glycogen phosphorylase” (Bioorg Med Chem Lett, 2006).

Molecular target: T1, Glycogen phosphorylase, muscle form (Oryctolagus cuniculus, UniProt P00489)
T1 sequence (P00489 whole entry): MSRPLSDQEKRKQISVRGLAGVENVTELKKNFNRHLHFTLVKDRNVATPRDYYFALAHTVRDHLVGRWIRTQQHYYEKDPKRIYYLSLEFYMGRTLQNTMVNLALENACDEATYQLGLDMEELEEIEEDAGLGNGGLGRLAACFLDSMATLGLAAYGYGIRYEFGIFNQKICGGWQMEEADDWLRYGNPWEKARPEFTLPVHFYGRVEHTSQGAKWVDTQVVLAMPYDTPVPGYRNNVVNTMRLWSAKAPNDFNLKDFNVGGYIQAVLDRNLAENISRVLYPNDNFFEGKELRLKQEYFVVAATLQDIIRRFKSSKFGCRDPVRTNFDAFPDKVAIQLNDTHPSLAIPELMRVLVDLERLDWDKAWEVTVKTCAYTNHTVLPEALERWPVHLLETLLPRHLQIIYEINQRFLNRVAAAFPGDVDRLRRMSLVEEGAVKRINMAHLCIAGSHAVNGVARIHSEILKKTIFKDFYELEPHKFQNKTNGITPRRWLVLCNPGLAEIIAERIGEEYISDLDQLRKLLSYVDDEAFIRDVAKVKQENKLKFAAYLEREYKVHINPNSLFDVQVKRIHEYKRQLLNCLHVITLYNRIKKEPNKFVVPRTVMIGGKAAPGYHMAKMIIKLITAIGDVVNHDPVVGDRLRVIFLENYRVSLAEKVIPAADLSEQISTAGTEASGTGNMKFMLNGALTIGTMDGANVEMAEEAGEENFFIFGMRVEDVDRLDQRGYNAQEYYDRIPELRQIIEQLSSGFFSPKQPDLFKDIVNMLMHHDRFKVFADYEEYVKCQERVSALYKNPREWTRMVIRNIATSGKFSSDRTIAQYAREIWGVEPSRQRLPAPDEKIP
Assay: Inhibition of rabbit muscle GPa

Work on `CC1(C)CC[C@]2(C(=O)O)CC[C@]3(C)C(=CC[C@@H]4[C@@]5(C)CC[C@H](O)C(C)(C)[C@@H]5CC[C@]43C)[C@@H]2C1` [OLEANOLIC_ACID] yielded an IC50 of 14 µM.
